Each structure is given as a SMILES string.

The target in the assay is mu-opiate receptors (Mus musculus, UniProt P42866). Nature of the assay: Mouse tail flick assay: analgesia after 14-day chronic administration. To be noted: acute Vehicle.

In the case of `O=C1CN2c3c(cccc3[C@@H]3CN(CCCc4noc5cc(F)ccc45)CC[C@@H]32)N1`, the Latency is, setting by setting: ((B) chronic Ex. 3, 0.3 mg/kg) 0.893 s; ((C) chronic Ex. 3, 3.0 mg/kg) 1.04 s.

For the origin of these results see patent publication US20220088014A1 (priority 2019, published 2022).
